Source: PMC2701369

The chains behind the UniProt entries cited, without tags or fusion partners.
UniProt P40337, whole entry: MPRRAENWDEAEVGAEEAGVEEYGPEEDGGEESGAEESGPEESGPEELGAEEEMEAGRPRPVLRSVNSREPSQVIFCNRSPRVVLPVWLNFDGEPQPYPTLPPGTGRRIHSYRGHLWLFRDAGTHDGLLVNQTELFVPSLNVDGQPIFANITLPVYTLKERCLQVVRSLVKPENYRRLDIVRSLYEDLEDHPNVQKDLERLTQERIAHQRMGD
UniProt O43521, whole entry: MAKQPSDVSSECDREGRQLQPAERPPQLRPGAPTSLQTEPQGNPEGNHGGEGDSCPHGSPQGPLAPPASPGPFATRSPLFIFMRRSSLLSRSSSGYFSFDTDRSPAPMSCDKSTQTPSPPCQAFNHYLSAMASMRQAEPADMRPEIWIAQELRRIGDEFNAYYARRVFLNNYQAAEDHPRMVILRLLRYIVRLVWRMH

Molecular target: wild type pVHL stably expressed in WT7 cells (human) (UniProt P40337)
Assay: co-IP

percent of total BIMEL co-immunoprecipitated with pVHL: 2 to 5%
Substance: endogenous BIMEL in WT7 cells (from UniProt O43521-1 1-198) (natural protein; other documents disagree on this pair)
